# Laboratory results taken from patent US9340579B2, “DPP-4 inhibitor” (NIPPI, INCORPORATED, priority 2011, dated 2016).
# Sequences of proteins named here, by UniProt entry; tags and fusion partners are left off. A change or cut given only in a name is not applied to a line headed by its entry.
# UniProt P22411: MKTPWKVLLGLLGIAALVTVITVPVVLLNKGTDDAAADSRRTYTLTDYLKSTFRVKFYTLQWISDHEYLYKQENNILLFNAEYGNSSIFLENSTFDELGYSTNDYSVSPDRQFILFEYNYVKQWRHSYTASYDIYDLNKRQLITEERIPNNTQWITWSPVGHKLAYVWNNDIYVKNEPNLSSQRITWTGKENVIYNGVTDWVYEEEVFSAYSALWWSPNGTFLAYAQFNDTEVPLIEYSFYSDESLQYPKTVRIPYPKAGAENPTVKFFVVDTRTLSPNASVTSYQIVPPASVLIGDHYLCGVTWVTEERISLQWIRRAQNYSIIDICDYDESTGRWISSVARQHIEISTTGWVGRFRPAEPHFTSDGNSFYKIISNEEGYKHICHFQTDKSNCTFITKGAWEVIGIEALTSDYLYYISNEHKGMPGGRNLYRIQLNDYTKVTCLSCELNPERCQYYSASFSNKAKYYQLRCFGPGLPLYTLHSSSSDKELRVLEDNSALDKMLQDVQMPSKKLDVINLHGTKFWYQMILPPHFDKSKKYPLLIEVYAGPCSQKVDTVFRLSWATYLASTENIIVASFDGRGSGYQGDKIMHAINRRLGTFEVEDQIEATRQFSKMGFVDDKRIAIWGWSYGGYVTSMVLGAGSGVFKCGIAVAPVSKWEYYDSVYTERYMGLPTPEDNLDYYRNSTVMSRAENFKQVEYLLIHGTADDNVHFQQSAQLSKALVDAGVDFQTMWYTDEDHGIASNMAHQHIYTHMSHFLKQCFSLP
# Biological target: T1, DPP-4 (manufactured by Sigma, derived from porcine kidney) (Sus scrofa, UniProt P22411)
# T1 construct: derived from porcine kidney; purchased Sigma; host or cells: porcine kidney (tissue-derived)
# Test: DPP-4 inhibition rate and IC50 measurement, fluorescence of AMC freed from Gly-Pro-MCA
# Type: biochemical
# Conditions: for inhibition at 350 µg/mL: sample 0.35 mg/ml, substrate Gly-Pro-MCA, pH 7.5, 37° C., read-out: Inhibition rate (%) at 0.35 mg/ml time; for IC50: sample concentration changed between 0.001 and 7.2 μmol/ml
# Description: A sample liquid 35 μl obtained by dissolving a sample 1 mg in 50 mM tris-hydrochloric acid buffer (pH 7.5) 1 ml and DPP-4 (manufactured by Sigma, derived from porcine kidney; 8.6 mU/ml) 15 μl that had been dissolved in 50 mM tris-hydrochloric acid buffer (pH 7.5) were mixed in a microtiter plate well (manufactured by NUNC, trade name “237015”) and incubated at 37° C. for 10 minutes.
# Thereto, 50 μl of a substrate solution (one obtained by dissolving glycyl-Pro-4-methylcoumarin-7-amide (Gly-Pro-MCA) in 50 mM tris-hydrochloric acid buffer (pH 7.5) so as to be 10 μM) that had in advance heated to and kept at 37° C. was added, mixed, and allowed to react at 37° C. for 20 minutes.
# The fluorescence intensity of 7-amino-4-methylcoumarin (AMC) that was freed by DPP-4 was measured with time by a microplate reader type fluorescence detector (manufactured by Corona Electric Co., Ltd., trade name “SH-9000”). Note that the measurement wavelength was an excitation wavelength of 380 nm and a measurement wavelength of 460 nm. Note that one obtained by using the same amount of 50 mM tris-hydrochloric acid buffer (pH 7.5) in replace of the sample was used as a control; and the fluorescence intensity thereof was measured.
# The activity of DPP-4 was expressed by an average gradient of change in the amount of the fluorescence intensity during the reaction time; and, as for DPP-4 inhibition rate, difference obtained by, with the control as 100%, subtracting the activity of the sample from the above-mentioned control was calculated as an inhibition rate (%).
# In accordance with the above method of measuring a DPP-4 inhibition rate, sample concentration was changed between 0.001 and 7.2 μmol/ml to obtain the inhibition rate, thereby calculating the 50% inhibitory concentration (IC50 value) of the activity of DPP-4.
Compound,inhibition at 350 µg/mL (Table 1),IC50 (Table 1),IC50 (Table 2),inhibition at 350 µg/mL (Table 2)
"NCC(=O)N1CCC[C@H]1C(=O)N1CCC[C@H]1C(=O)O [Comparative Example 3, Gly-Pro-Pro, reference compound]",10.2%,78200 µM,,
"CC(C)[C@H](NC(=O)[C@@H]1CCCN1C(=O)CN)C(=O)O [Example 7, Gly-Pro-Val]",76.5%,370 µM,,
"NCC(=O)N1CCC[C@H]1C(=O)N[C@@H](CCC(N)=O)C(=O)O [Example 8, Gly-Pro-Gln]",80.2%,310 µM,,

# Other lines, results leading:
inhibition at 350 µg/mL (Table 1),IC50 (Table 1),IC50 (Table 2),inhibition at 350 µg/mL (Table 2),Compound
,,50 µM,,"CC(C)C[C@H](N)C(=O)N1CCC[C@H]1C(=O)NCC(=O)O [Example 17, Leu-Pro-Gly]"
,,30 µM,98.7%,"C[C@H](N)C(=O)N1CCC[C@H]1C(=O)NCC(=O)O [Example 19, Ala-Pro-Gly]"

# Where two headings read alike, the source gives them in different places.
